Data on 49 compounds can be found in PubChem BioAssay AID602229 (The Scripps Research Institute Molecular Screening Center, 2012).

Sequences of proteins named here, by UniProt entry; tags and fusion partners are left off.
UniProt Q9Y5X4, whole entry: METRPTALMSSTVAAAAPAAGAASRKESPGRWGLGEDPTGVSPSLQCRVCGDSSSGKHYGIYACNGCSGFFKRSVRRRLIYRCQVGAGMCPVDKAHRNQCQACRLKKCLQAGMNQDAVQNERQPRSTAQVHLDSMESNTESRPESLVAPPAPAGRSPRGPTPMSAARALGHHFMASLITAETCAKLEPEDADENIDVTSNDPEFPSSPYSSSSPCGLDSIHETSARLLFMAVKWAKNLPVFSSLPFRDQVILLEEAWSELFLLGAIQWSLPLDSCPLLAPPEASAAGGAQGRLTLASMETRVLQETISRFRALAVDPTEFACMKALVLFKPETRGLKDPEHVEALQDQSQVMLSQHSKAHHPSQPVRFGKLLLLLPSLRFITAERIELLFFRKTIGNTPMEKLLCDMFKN

Only a part is listed here, and it is no random draw. Some salts or complexes appear as unconnected parts, following the source record. The source made the active and inactive calls.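 How the source made its calls: active means inhibition above the mean of all tested compounds plus 3 SD (cut at about 70% in these data); inactive means the rest.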

This assay addresses Photoreceptor-specific nuclear receptor (Homo sapiens) (UniProt Q9Y5X4). Description: NR2E3 agonists in two-hybrid cells, primary screen, cell-based, luminescence, CHO-S, Gal4-NCOR/VP16-NR2E3 (AID 602229).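 Further: 0% = DMSO with NR2E3 transfected cells and 100% = cells lacking NR2E3 construct; higher means lower luciferase signal from less NR2E3 corepressor binding.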 As to conditions: luciferase, at 3.98 µM, hits give high values.
Turning to `CP(=O)(Nc1ccc(Cl)cc1)Oc1ccc(F)cc1` (centres undefined), the inhibition of corepressor binding is inactive: 20.2%.
In the case of `COc1ccccc1OP(C)(=O)Nc1ccccc1Br` (centres undefined) it was inactive: 3.4%.
In the case of `CC(C)(C)c1ccc(OP(C)(=O)O)cc1` it was inactive: -6.29%; in that of `CN(C)C(=O)c1c([N+](=O)[O-])cc([N+](=O)[O-])cc1[N+](=O)[O-]`, inactive: 30.8%.
In the case of `COc1ccc(OP(C)(=O)Nc2ccc(Br)cc2)cc1` (centres undefined) it was inactive: 14.6%; in that of `CCN(CC)CC(O)COC(=O)C(O)(c1ccccc1)C1CCCCC1` (centres undefined), inactive: 0.82%.
With `CCc1ccc(OP(C)(=O)Nc2cccnc2)cc1` (centres undefined), the inhibition of corepressor binding was inactive: 3%.
Turning to `CP(=O)(Oc1ccccc1)N1CCOC1=O` (centres undefined), the inhibition of corepressor binding is inactive: -21.3%.
In the case of `O=C(OCCCN1CCCC1)C(O)(c1ccccc1)C1CCCCC1` (centres undefined) it was inactive: 16%; in that of `COc1ccccc1OP(C)(=O)Nc1c(C)n(C)n(-c2ccccc2)c1=O` (centres undefined), inactive: -12.2%; in that of `CP(=O)(OC12CC3CC(CC(C3)C1)C2)OC12CC3CC(CC(C3)C1)C2`, inactive: -12.4%.
In the case of `CCOC(=O)c1ccc(NP(C)(=O)Oc2ccc(Cl)cc2)cc1` (centres undefined) it was inactive: 7.8%; in that of `CCCCCCCCCCCCCCCC1C[N+](C)(C)CCOP(C)(=O)O1` (centres undefined), inactive: -0.73%; in that of `CP(=O)(Nc1ccc(Cl)cc1Cl)Oc1ccccc1` (centres undefined), inactive: 1.11%.
In the case of `CP(=O)(OCCOc1ccccc1)OCCOc1ccccc1` it was inactive: -24.5%.
In the case of `Cc1cc(C)cc(OP(C)(=O)Nc2cccc(C(F)(F)F)c2)c1` (centres undefined), the inhibition of corepressor binding was inactive: 1.81%.
In the case of `O=C1C(O)=C([N+](=O)[O-])C(=O)C(O)=C1[N+](=O)[O-]` it was inactive: -11%; in that of `COc1ccc(OP(C)(=O)Nc2ccccc2Br)cc1` (centres undefined), inactive: 0.74%; in that of `COc1ccccc1OP(C)(=O)Nc1ccc(C)c(C)c1` (centres undefined), inactive: 19%.
In the case of `Cc1c(NP(C)(=O)Oc2ccc(C(C)C)cc2)c(=O)n(-c2ccccc2)n1C` (centres undefined) it was inactive: -3.85%; in that of `O=[N+]([O-])c1cc([N+](=O)[O-])c(Nc2ccccn2)c([N+](=O)[O-])c1`, inactive: -3.25%.
For the compound `CCc1ccc(OP(C)(=O)O)cc1`, the inhibition of corepressor binding was inactive: 2.26%.
In the case of `COc1ccccc1OP(C)(=O)Nc1ccc(C)cc1C` (centres undefined) it was inactive: -1.15%; in that of `CP(=O)(Nc1ccccn1)Oc1ccccc1` (centres undefined), inactive: -7.43%.
As for `COc1ccccc1OP(C)(=O)Nc1ccc(Br)cc1` (centres undefined), the inhibition of corepressor binding is inactive: -6.54%.
In the case of `CN(C)CCOC(=O)C(O)(c1ccccc1)C1CCCC1` (centres undefined) it was inactive: 5.12%; in that of `COc1ccc(OP(C)(=O)Nc2ccccn2)cc1` (centres undefined), inactive: 5.29%.
As for `O=C(OCCN1CCN(CCOCc2ccccc2)CC1)C(O)(c1ccccc1)c1ccccc1`, the inhibition of corepressor binding is inactive: 6.45%.
In the case of `O=C(OC1CN2CCC1CC2)c1ccc([N+](=O)[O-])cc1` (centres undefined) it was inactive: 16%; in that of `COc1ccc2c(c1O)-c1c(O)c(OC)cc3c1[C@H](C2)[N+](C)(C)CC3.O=[N+]([O-])c1cc([N+](=O)[O-])c([O-])c([N+](=O)[O-])c1[O-]`, inactive: -3.7%; in that of `O=[N+]([O-])c1cc([N+](=O)[O-])c(Nc2ccc(Cl)cc2)c([N+](=O)[O-])c1`, inactive: 15.7%.
In the case of `CC(C)c1ccc(OP(C)(=O)Nc2ccc(SC(F)(F)F)cc2)cc1` (centres undefined) it was inactive: 17.6%; in that of `CP(=O)(Nc1ccccc1F)Oc1ccccc1` (centres undefined), inactive: 4.56%; in that of `CCN(CC)CCCOC(=O)C(O)(c1ccccc1)C1CCCCC1` (centres undefined), inactive: 9.86%.
As to `Cc1c([N+](=O)[O-])cc([N+](=O)[O-])c(Br)c1[N+](=O)[O-]`, the inhibition of corepressor binding was inactive: -7.43%.
Turning to `CCCCCOc1ccc(NP(C)(=O)Oc2ccc(Cl)cc2Cl)cc1` (centres undefined), the inhibition of corepressor binding was inactive: -12.7%.
In the case of `O=[N+]([O-])c1cc([N+](=O)[O-])c(OC2CCCCC2O)c([N+](=O)[O-])c1` (centres undefined) it was inactive: 12.9%; in that of `CP(=O)(Nc1ccccc1)Oc1ccc(F)cc1` (centres undefined), inactive: 3.4%; in that of `CCN(CC)CCCNc1ccccc1[N+](=O)[O-].O=[N+]([O-])c1cc([N+](=O)[O-])c(O)c([N+](=O)[O-])c1`, inactive: -5.21%.
As for `COc1ccc(OP(C)(=O)Nc2ccc(SC(F)(F)F)cc2)cc1` (centres undefined), the inhibition of corepressor binding is inactive: 23.7%.
In the case of `CCOC(=O)c1ccc(NP(C)(=O)Oc2ccc(F)cc2)cc1` (centres undefined) it was inactive: -21.9%; in that of `Cc1cc(-c2cccc3ccccc23)c(C)cn1.O=[N+]([O-])c1cc([N+](=O)[O-])c(O)c([N+](=O)[O-])c1`, inactive: -5.08%.
In the case of `O=[N+]([O-])c1cc([N+](=O)[O-])c(NCC2CCS(=O)(=O)C2)c([N+](=O)[O-])c1` (centres undefined) it was inactive: -7.94%; in that of `O=[N+]([O-])c1ccc(OP2(=O)COCCO2)cc1` (centres undefined), inactive: -18.1%; in that of `Cc1c(C(c2ccc3c(c2)OCO3)c2c(C)n(C)n(-c3ccccc3)c2=O)c(=O)n(-c2ccccc2)n1C.O=[N+]([O-])c1cc([N+](=O)[O-])c(O)c([N+](=O)[O-])c1`, inactive: -19.5%.
In the case of `COc1ccc(OP(C)(=O)Nc2cccc(Br)c2)cc1` (centres undefined) it was inactive: 5.27%; in that of `COc1ccc(NP(C)(=O)Oc2ccccc2OC)cc1` (centres undefined), inactive: -15.9%.
As for `CN(C)CCOC(=O)C(O)(c1ccccc1)C1CCCCC1` (centres undefined), the inhibition of corepressor binding was inactive: 8.91%.
Take `CP(=O)(Nc1ccc2c(c1)OCCO2)Oc1ccccc1` (centres undefined): the inhibition of corepressor binding was inactive: -19.7%.
